PTAP TSG101 blk: blocks PTAP/TSG101 interaction to inhibit HIV-1 budding | AID 493005 | Potency, µM (top dose mostly 115 µM), usual class: inhibitors | Fluorescence polarization, FITC-PTAP peptide / Tsg101 binding | 340,000 tested, under 10 active | Q99816; active = well fitted inhibition curve with a large enough effect in the main read-out, with a control signal flat, not every such curve was filed as active; inconclusive = small, poorly fitted or top-dose-only effect, or effect the other way, or a change in a side signal; inactive = no such curve, though single readings can be large or run the other way
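Fluorescence anisotropy tracks displacement of a FITC-tagged PTAP peptide (50 nM) from the Tsg101 binding domain (10 uM), following a 20 min room-temperature incubation at pH 7.5.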
Nrf2 activator: activators of Nrf2 (ARE) signaling | 410,000 compounds, 0.31% hits | Potency, µM (series often up to 46.1 µM), hits mostly activators | AREc32 ARE-luciferase reporter (MCF7-derived line), luminescence, 24 h; also: nearly all actives have a fitted effect of over 65% in size
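Each well held 1000 AREc32 cells, which were incubated with compound for 24 hr at 37 deg C after overnight attachment, and ARE reporter activity was quantified by firefly luciferase luminescence.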
Nrf2 inh: Nrf2 pathway inhibition | Potency, µM (series often up to 46 µM), usual class: inhibitors | AID 504444 | 360,000 compounds, 2.1% hits | A549 ARE-Fluc reporter, luciferase luminescence, 18-24 h; also: nearly all actives have a fitted effect of over 60% in size
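Reporter: ARE-Fluc in A549. Exposure: 18-24 h, 37 °C, 5% CO2, 5% FBS OPTI-MEM. Readouts: fluorescent cytotoxicity (CellTiter-Fluor), then luminescent Nrf2 signal after BugLite.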
Glioma ERSR ind: inducers of ER stress response in human glioma cells | U87-MG GRP78 promoter luciferase reporter, 16 h | Potency, µM, usual class: activators | 420,000 compounds, 0.02% hits; also: series mostly up to about 76 µM; nearly all actives have a fitted effect of over 35% in size
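Stably transfected U87-MG glioma cells carrying a GRP78-based luciferase sensor; 16 h compound incubation. Luminescence end-point read 10 min after Bright-Glo addition at room temperature.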
A549 tox-1: kills or reduces viability of A549 cells in Nrf2 counter-screen; A549 ARE-Fluc cells, CellTiter-Fluor viability, 18-24 h; Potency, µM (series often up to 46 µM), most hits filed as inhibitors; 390,000 compounds, 0.16% hits; AID 504648
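A549 ARE_Fluc cells in 5% FBS OPTI-MEM were exposed to compounds in concentration-response for 18-24 h at 37 deg C. Viability was read by CellTiter-Fluor fluorescence (Ex 405/Em 525) after 30 min, before the luciferase read.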
miR-21 reporter: miR-21 reporter, rising signal; HeLa miR-21 FLuc reporter, luciferase, 48 h; Potency, µM (highest dose often 38.3 µM); 340,000 tested, under 10 active; AID 2288; active = well fitted rising curve with a large enough effect; inconclusive = small, poorly fitted or top-dose-only effect; inactive = no such curve, though single readings can be large or run the other way;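 further: miR-21 action dims this reporter so a rising signal means less miR-21 action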
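HeLa miR-21-FLuc reporter line, endogenous miR-21; 2000 cells/well in DMEM/10% FBS; compound titration up to ~40uM final, 48 h, 37 degree Celsius; luciferase detection reagent, 15 min lysis, CCD luminescence.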
FLuc counter 3: counter-screen for Nrf2 inhibitors: firefly luciferase enzyme inhibition | shares compounds with Nrf2 inh | purified firefly luciferase, luminescence inhibition | Potency, µM (titrated, usually from 57.5 µM), usual class: inhibitors | 1,400 compounds, 4% hits | AID 720522; also: nearly all actives have a fitted effect of over 65% in size
A549 tox-2: A549 cytotoxicity, Nrf2 inhibitor counterscreen. shares compounds with Nrf2 inh. A549 ARE-Fluc cells, cytotoxicity counterscreen. Potency, µM (doses to about 46.1 µM), actives largely listed as inhibitors. 1,400 compounds, 2% hits. AID 720523;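 also: cells exposed to compounds for 18 to 24 hours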
ARE-Fluc inh: Nrf2 inhibition confirmed, A549 ARE-luciferase | shares compounds with Nrf2 inh | A549 ARE-firefly luciferase reporter, luminescence | Potency, µM (highest dose often 46.1 µM), most hits filed as inhibitors | 1,400 compounds, 74% hits | AID 720524; also: nearly all actives have a fitted effect of over 65% in size
A number is an active result; – = inactive; ? = inconclusive; · = not tested or not shown; [ ] = remark or other dose. An excerpt weighted towards active compounds, which were near 2.1% of everything screened. Unless noted, calls follow the shape of the dose curve; as a rule, active = well fitted curve in the direction sought with a large enough effect; inconclusive = small, poorly fitted or top-dose-only effect, or another doubt; inactive = no such curve, though single readings can be large; an effect the other way counts as inactive or inconclusive.

SMILES	PTAP TSG101 blk	Nrf2 activator	Nrf2 inh	Glioma ERSR ind	A549 tox-1	miR-21 reporter	FLuc counter 3	A549 tox-2	ARE-Fluc inh
C=CCn1c(C)cc(-c2csc(NC(=O)C3CCN(c4ncnc5sc(C)c(C)c45)CC3)n2)c1C	–	–	–	–	–	·	·	·	·
COc1ccc(-c2csc(NC(=O)C3CCN(c4ncnc5sc(C)c(C)c45)CC3)n2)cc1OC	–	–	4.1µM	–	–	·	–	–	6.5µM
CC(=O)c1ccc(C(=O)N2CCc3c(cnc(C)c3CNC(=O)c3ccc4c(c3)OCO4)C2)s1	·	·	·	–	·	·	·	·	·
CC(=O)Oc1ccc(-c2nc(-c3ccccc3)no2)cc1	·	·	·	–	·	·	·	·	·
Cc1cc(C)c2oc(-c3ccc(NC(=O)c4cc(Br)ccc4Cl)cc3)nc2c1	·	–	5.8µM	–	–	–	–	–	7.3µM
Cc1cc(C)c(S(=O)(=O)Nc2cccc3cccnc23)c(C)c1	·	·	2.9µM	?	–	·	–	–	16µM
Cc1cc(C)c(S(=O)(=O)Nc2cccc3nsnc23)c(C)c1	–	–	–	–	–	–	·	·	·
O=S(=O)(NCCCCNS(=O)(=O)c1cccc2cccnc12)c1cccc2cccnc12	·	·	·	–	·	·	·	·	·
Cc1cc(=O)[nH]c(N/N=C/c2ccccn2)n1	–	–	–	–	–	–	·	·	·
O=c1cnnc(N/N=C/c2ccccn2)[nH]1	–	–	?	–	–	–	–	–	12µM
O=C(OCCOc1ccc(Cl)cc1)c1cc(S(=O)(=O)N2CCCCC2)ccc1N1CCOCC1	–	–	8.2µM	–	–	·	–	–	8.2µM
O=C1c2ccc(Oc3ccc([N+](=O)[O-])cc3)cc2C(=O)N1CCCO	–	–[9.22 µM]	4.1µM	–	–	–	–	–	?
Clc1ccc(N2CCN(c3ncnc4c3nc3n4CCCC3)CC2)cc1	·	–	4.6µM	–	–	–	–	–	1.5µM
CCc1nnc(NC(=O)c2ccc(OCc3c(C)noc3C)c(OC)c2)s1	–	–	5.8µM	–	–	–	–	–	–
N=c1ccn(Cc2cccc(F)c2)cc1	–	–	2.1µM	–	?	–	–	–	5.8µM
Nc1ccn(Cc2cccc(F)c2)n1	–	–	–	–	–	–	·	·	·
CC(=O)Nc1ccc(Nc2nc(Nc3ccc(Cl)cc3)nc(N3CCOCC3)n2)cc1	·	·	?	–	–	·	·	·	·
CC(=NNC(=O)c1ccncc1)c1ccccc1O	–	–	?	–	–	·	·	·	·
CC(=NNC(=O)c1ccncc1)c1ccc2ccccc2c1O	?	–	2.6µM	–	?	·	–	–	4.1µM
C#Cc1ccc2c(c1)C(=O)N(C)Cc1c(C(=O)OCCCOC(=O)c3ncn4c3CN(C)C(=O)c3cc(C#C)ccc3-4)ncn1-2	·	·	·	–	·	·	·	·	·
COc1ccc(NC(=O)C(C)N2c3cccc4cccc(c34)S2(=O)=O)cc1OC (stereo not given)	–	–	8.2µM	–	–	–	–	–	23µM
COc1ccc(NC(=O)C(C)N2c3cccc4cccc(c34)S2(=O)=O)cc1 (stereo not given)	–	–	·	–	–	–	·	·	·
